Data on 1 compound can be found in paper PMC6932940, “Modulation of μ‐opioid receptor activation by acidic pH is dependent on ligand structure and an ionizable amino acid residue” (British Journal of Pharmacology, 2019).

Amino acid sequences for entries named in this document (tags omitted).
UniProt P33535, whole entry: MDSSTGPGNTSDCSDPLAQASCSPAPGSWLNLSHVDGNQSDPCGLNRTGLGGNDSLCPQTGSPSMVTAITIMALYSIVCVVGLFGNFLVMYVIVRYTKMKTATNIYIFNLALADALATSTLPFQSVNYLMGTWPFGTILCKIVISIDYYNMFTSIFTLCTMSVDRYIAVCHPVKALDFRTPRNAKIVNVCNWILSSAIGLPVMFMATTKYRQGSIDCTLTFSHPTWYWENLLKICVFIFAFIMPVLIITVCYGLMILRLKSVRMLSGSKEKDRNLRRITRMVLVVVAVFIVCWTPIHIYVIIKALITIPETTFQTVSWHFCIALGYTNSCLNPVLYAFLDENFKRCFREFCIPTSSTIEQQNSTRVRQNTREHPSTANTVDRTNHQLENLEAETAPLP

The experiment addresses μ‐opioid receptor wild type (MOR‐WT) (Rattus norvegicus, UniProt P33535). Description: biochemical. Set-up: expressed in transfected cells.

Structures are written as SMILES. Read-outs that look alike come from different tables or passages of the source.

As to `C[C@@H](NC(=O)[C@@H](N)Cc1ccc(O)cc1)C(=O)NCC(=O)N(C)[C@@H](Cc1ccccc1)C(=O)NCCO` [DAMGO, [D‐Ala2,N‐Me‐Phe4,Gly5‐ol]‐enkephalin], the Emax runs as follows: (pH 6, read-out: E max (maximum intrinsic activity), [35S]-GTPγS binding) 116.2 ± 1.1%; (pH 6.5, read-out: E max (maximum intrinsic activity), [35S]-GTPγS binding) 116.7 ± 0.9%.
